Data on one compound can be found in patent US20250235418A1, “Butyrate Analogues and Methods of Use for HIF Stabilization and Treatment of Bowel Disease” (THE REGENTS OF THE UNIVERSITY OF COLORADO, A BODY CORPORATE, priority 2022, published 2025).

Protein sequences, listed by entry. Tags and fused reporters are not part of them. Residues count along the entry.
UniProt Q9GZT9, 181-402: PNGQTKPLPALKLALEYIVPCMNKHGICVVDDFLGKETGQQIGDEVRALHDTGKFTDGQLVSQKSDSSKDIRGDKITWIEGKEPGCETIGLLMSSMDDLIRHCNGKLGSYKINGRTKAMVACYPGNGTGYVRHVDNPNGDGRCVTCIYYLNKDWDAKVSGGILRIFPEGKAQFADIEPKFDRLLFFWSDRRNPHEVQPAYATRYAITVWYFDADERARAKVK

Molecules are shown by their SMILES.

The target in the assay is T1, PHD2181-402 (Homo sapiens, UniProt Q9GZT9).
T1 construct: made in house
In words: bioluminescent succinate detection assay of recombinant PHD2181-402 activity/inhibition. The class given is biochemical. From the text: To pinpoint if butyrate inhibits PHDs directly, we expressed recombinant PHD derived from the human PHD2 sequence. There are three human PHDs: PHD1, PHD2, and PHD3, with PHD2 being the most abundant and expressed in the majority of tissues, the most important regulator of HIF, particularly HIF-1α, and the only PHD that is embryonically lethal when deleted. PHD1 is exclusively localized to the nucleus, whereas PHD2 is mainly cytoplasmic, and PHD3 is both. […] Sequence comparisons and modeling studies indicate that the PHD2 active site is highly conserved among the PHDs.
IC50s depend on exact experimental conditions, making direct comparisons and global applications difficult.

For orientation: Km means the substrate concentration at which the rate is half of its maximum.

For `O=C(O)CCC(=O)C(=O)O` [2-OG, 2-oxoglutarate], the Km is 1.2 µM.
